Assay results as given in PMC9516332 (Frontiers in Oncology, 2022).

Protein sequences, listed by entry. Tags and fused reporters are not part of them. Residues count along the entry.
UniProt Q15303, 26-1308: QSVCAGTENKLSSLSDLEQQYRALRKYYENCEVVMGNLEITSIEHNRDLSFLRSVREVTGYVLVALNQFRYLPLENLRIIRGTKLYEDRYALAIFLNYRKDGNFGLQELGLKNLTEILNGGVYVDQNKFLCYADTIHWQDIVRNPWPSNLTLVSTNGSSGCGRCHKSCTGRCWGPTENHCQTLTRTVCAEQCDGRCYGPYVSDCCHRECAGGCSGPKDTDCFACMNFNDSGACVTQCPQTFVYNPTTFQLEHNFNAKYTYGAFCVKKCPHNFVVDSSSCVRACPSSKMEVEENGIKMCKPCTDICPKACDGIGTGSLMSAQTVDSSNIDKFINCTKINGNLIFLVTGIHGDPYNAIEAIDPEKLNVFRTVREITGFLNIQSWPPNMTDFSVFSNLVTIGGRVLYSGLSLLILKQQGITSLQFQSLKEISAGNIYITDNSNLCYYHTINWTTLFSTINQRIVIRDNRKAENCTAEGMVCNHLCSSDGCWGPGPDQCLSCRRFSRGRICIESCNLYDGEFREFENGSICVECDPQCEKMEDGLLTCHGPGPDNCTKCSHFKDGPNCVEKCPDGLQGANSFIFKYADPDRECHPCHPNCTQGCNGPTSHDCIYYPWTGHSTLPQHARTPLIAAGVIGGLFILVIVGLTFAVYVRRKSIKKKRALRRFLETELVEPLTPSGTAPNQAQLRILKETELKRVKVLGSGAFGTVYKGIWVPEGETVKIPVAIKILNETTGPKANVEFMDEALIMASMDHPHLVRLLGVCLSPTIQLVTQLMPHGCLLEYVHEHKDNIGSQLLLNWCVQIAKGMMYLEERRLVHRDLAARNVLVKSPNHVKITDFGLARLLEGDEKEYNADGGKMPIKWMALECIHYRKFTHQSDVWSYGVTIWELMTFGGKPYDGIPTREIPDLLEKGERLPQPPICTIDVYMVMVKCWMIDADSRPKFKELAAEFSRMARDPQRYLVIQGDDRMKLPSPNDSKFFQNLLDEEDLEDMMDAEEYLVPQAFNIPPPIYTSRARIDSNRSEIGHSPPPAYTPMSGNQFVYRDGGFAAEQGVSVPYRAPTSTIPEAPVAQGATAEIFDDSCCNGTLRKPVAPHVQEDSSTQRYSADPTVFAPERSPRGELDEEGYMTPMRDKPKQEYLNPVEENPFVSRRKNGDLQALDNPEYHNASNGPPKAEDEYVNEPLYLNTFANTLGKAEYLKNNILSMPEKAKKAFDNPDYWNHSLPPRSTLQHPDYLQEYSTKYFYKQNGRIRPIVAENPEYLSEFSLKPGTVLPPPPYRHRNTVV
UniProt P04626, 23-1255: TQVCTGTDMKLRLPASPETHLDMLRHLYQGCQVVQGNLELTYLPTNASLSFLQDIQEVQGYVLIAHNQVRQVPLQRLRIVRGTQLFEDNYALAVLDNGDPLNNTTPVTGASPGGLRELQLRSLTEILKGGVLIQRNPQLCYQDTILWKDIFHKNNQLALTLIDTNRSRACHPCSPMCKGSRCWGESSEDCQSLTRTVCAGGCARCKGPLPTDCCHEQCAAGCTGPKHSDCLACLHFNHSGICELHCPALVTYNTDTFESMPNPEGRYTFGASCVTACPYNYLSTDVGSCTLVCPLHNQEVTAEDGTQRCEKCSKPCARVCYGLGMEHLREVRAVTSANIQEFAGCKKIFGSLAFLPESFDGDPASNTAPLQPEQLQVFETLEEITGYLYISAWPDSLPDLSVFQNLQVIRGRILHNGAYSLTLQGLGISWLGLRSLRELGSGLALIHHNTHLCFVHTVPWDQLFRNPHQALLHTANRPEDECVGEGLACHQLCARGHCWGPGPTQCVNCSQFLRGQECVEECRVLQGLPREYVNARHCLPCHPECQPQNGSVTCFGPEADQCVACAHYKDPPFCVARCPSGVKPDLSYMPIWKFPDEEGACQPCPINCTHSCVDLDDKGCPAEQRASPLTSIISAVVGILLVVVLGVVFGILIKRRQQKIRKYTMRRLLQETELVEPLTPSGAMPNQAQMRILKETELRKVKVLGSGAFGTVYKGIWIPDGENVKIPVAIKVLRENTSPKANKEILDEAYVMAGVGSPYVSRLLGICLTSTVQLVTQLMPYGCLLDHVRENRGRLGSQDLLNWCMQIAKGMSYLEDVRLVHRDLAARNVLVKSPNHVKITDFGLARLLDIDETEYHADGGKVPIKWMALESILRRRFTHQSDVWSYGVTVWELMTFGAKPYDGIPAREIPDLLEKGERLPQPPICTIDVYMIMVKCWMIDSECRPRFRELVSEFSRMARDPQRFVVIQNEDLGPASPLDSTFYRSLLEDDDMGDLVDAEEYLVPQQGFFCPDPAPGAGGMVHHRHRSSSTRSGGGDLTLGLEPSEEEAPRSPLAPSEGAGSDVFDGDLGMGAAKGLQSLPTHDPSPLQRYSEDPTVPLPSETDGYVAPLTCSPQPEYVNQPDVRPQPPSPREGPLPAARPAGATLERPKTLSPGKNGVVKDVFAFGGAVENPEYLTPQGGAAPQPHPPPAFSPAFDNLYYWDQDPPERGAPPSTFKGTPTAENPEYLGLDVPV

How the values were obtained:
HER4 = molecular target: T1, HER4 (Homo sapiens, UniProt Q15303); test: Biochemical kinase assay (MSA), IC50
T1 construct: purchased Carna Biosciences (only by web pointer)

HER2 = molecular target: T2, HER2 (Homo sapiens, UniProt P04626); test: Biochemical kinase assay (MSA), IC50
T2 construct: purchased Carna Biosciences (only by web pointer)

AP-1060 (ETV6-NTRK3) = test: Cell viability assay; settings: read-out: IC50 in cell proliferation assay
134 cancer cell lines = test: Cell viability assay (ATPlite, 72 hours), IC50 on cancer cell line panel; settings: L-82, read-out: IC50 in cell proliferation assay, L-82 cell line (NPM1-ALK)

Compound | IC50 (HER4) [nM] | IC50 (HER2) [nM] | IC50 (AP-1060 (ETV6-NTRK3)) [µM] | IC50 (134 cancer cell lines) [µM]
COc1cc2ncnc(Nc3ccc(F)c(Cl)c3)c2cc1NC(=O)/C=C/CN1CCCCC1 [dacomitinib] | 0.6 | 6 |  | 
CCN1CCN(c2ccc(Nc3cc(N(C)C(=O)Nc4c(Cl)c(OC)cc(OC)c4Cl)ncn3)cc2)CC1 [infigratinib] |  |  | 3.62 | 3.62
